ChEMBL document CHEMBL2062388, “Integrated virtual screening for the identification of novel and selective peroxisome proliferator-activated receptor (PPAR) scaffolds” (J Med Chem, 2012)

Target: T1, Peroxisome proliferator-activated receptor alpha (Homo sapiens) (UniProt Q07869)
T1 sequence (whole entry): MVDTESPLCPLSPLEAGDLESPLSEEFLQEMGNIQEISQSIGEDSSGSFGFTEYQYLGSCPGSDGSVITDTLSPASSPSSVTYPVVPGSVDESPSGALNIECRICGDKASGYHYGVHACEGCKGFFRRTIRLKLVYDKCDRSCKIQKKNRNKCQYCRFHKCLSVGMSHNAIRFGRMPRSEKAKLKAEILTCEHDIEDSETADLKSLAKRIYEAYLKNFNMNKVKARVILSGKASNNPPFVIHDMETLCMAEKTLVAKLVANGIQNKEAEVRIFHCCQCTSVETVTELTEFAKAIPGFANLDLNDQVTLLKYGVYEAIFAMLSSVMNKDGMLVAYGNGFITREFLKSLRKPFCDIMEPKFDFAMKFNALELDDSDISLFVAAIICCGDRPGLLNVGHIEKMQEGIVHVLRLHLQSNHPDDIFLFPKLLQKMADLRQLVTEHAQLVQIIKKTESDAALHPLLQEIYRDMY
Experiment: Displacement of pan-PPAR fluormone from PPARalpha LBD at >= 100 uM by TR-FRET based LanthaScreen assay

O=C1NC(=S)NC(=O)C1=Cc1ccc(OCc2ccccc2)c(Cl)c1
inhibition: inactive

Activity calls are given as the source filed them. The rule behind the calls is not given here.
